Assay results taken from patent publication US20260284201A1, “COMPOSITIONS AND METHODS FOR TREATING TENDON AND BONE INJURIES” (The United States Government as represented by the …, priority 2023, published 2026).

How the values were obtained:
[1] = test system: BMP receptors; assay: In vitro BMP receptor activation, dual luciferase assay (BRE plasmid / Rinella plasmid) in ATDC5 cells; assay type: cell-based
Protocol: FIG. 11 is a bar graph showing activation of BMP receptors (by measuring bone response element (BRE) expression) in cells treated with (1) Phosphate Buffered Saline (control), (2) rhBMP-2, (3) variant BMP-2, (4) Ctsk-digested BP-vBMP-2 or (5) undigested BP-vBMP-2. Luciferase expression from BRE plasmid was detected and normalized to control Rinella plasmid luciferase expression.
Activation of BMP receptors in vitro was assessed using a dual luciferase assay where a Rinella plasmid and BMP-responsive element (BRE) plasmid were transfected into ATDC5 cells known to express BMP receptors. These transgenic ATDC5 cells then underwent under one of the following five treatments: 1) commercially available rhBMP-2; 2) variant BMP-2; 3) Ctsk-digested BP-vBMP-2; 4) undigested BP-vBMP-2; or 5) phosphate buffered saline. Luciferase 1 expression from BRE plasmid was detected and normalized to control Rinella plasmid luciferase 2 expression (FIG. 11).

[2] = test system: osteopenic mice; details: systemic, 0.5 mg, 1 mg and 5 mg per mouse per day; cited from earlier work

Molecule	activation of BMP receptors (BRE luciferase normalized to Rinella luciferase) ([1]; Ctsk-digested)	activation of BMP receptors (BRE luciferase normalized to Rinella luciferase) ([1]; undigested)	total bone volume [2]
BP-BMP-2: BMP-2 covalently bound to BP molecules via a cat-K cleavable peptide sequence using click chemistry (conjugate, UniProt P12643 283-396, looked up, bisphosphonate via cathepsin K-cleavable peptide linker) Bone morphogenetic protein 2: QAKHKQRKRLKSSCKRHPLYVDFSDVGWNDWIVAPPGYHAFYCHGECPFPLADHLNSTNHAIVQTLVNSVNSKIPKACCVPTELSAISMLYLDENEKVVLKNYQDMVVEGCGCR	capable of activating BMP receptors in a similar fashion to commercially available rhBMP-2	does not activate BMP receptors above the level of the control condition	–
rhBMP-2: commercially available recombinant human BMP-2 (protein, UniProt P12643 283-396, looked up) Bone morphogenetic protein 2: QAKHKQRKRLKSSCKRHPLYVDFSDVGWNDWIVAPPGYHAFYCHGECPFPLADHLNSTNHAIVQTLVNSVNSKIPKACCVPTELSAISMLYLDENEKVVLKNYQDMVVEGCGCR	–	–	statistically significant increases in total bone volume
